{"source": "paper PMC7878667", "about": "“The Kinase Specificity of Protein Kinase Inhibitor Peptide” (Frontiers in Pharmacology, 2021)", "molecular_target": "protein kinase A (PKA) (human) (UniProt P17612)"}
{"substance": "full length mouse PKIα (from UniProt P63248 1-76) (natural protein)", "values": [{"measurement": "IC50 of inhibition of PKA kinase activity, dose-response curve (cell-free Z′-LYTE Peptide Kinase Assay, purified kinase)", "result": 110, "unit": "pM"}]}
